Consider 1 compound from patent publication US20200002670A1, “Generation of Endocrine Progenitor Cells from Human Pluripotent Stem Cells Using Small Molecules” (Novo Nordisk A/S, priority 2013, published 2020).

Structures are written as SMILES.

The test relates to pancreatic endoderm cells. Description: NGN3/NKX2.2 double positive cells by immunostaining and InCell imaging after PE to EP differentiation. In kind it is cell-based, human. The note with it: 0.5 μM added to method of example 2 for three days. How it is done:
After three days of EP differentiation, at EP day 4, media were aspirated followed by fixation of the cells at room temperature for 30 min with 4% paraformaldehyde (VWR, 97.131.000). Cells were washed with PBS and permeabilized with 0.5% Triton X-100 (Sigma, 9002-93-1) for 10 min, washed and blocked in 0.5% TNB-buffer (Perkin Elmer) for 30 min at room temperature. Primary antibodies, sheep anti-NGN3 (R&D systems #AF3444) and rabbit anti-NKX2.2 (Sigma #HPA003468) were diluted 1:1000 and 1:500, respectively, in 0.1% Triton X-100 in PBS and added to each well for overnight incubation at 4° C. Cells were washed three times with PBS. […] The total cell number based in the DAPI counterstaining and the number of NGN3/NKX2.2 double positive cells was determined using InCell Developer Toolbox 1.8 (GE Healthcare). The fraction of NGN3/NKX2.2 double positive cells were quantified using the InCell developer toolbox software (GE Healthcare) and normalized to the combined protocol K&N (example 2) on each plate and the % effect was calculated (% effect NGN3/NKX2.2 double positive=((S−Sneg)/(|Spos−Sneg|))*100). […]
Imaging was performed using the InCell Analyzer 2000 (GE Healthcare). […] The total cell number based in the DAPI counterstaining and the number of NGN3/NKX2,2 double positive cells was determined using InCell Developer Toolbox 1.8 (GE Healthcare). […]

Consider `COc1cc2ncnc(Nc3ccc(F)c(Cl)c3)c2cc1OCCCN1CCOCC1` [Gefitinib], for which the “% effect NGN3/NKX2.2 double positive cells” value is listed as 242%.
